Source: ChEMBL document CHEMBL2406973, “Synthesis of novel diarylamino-1,3,5-triazine derivatives as FAK inhibitors with anti-angiogenic activity” (Bioorg Med Chem Lett, 2013)
pIC50: −log10 of the molar value.

Protein sequences, listed by entry. Tags and fused reporters are not part of them.
UniProt Q05397, whole entry: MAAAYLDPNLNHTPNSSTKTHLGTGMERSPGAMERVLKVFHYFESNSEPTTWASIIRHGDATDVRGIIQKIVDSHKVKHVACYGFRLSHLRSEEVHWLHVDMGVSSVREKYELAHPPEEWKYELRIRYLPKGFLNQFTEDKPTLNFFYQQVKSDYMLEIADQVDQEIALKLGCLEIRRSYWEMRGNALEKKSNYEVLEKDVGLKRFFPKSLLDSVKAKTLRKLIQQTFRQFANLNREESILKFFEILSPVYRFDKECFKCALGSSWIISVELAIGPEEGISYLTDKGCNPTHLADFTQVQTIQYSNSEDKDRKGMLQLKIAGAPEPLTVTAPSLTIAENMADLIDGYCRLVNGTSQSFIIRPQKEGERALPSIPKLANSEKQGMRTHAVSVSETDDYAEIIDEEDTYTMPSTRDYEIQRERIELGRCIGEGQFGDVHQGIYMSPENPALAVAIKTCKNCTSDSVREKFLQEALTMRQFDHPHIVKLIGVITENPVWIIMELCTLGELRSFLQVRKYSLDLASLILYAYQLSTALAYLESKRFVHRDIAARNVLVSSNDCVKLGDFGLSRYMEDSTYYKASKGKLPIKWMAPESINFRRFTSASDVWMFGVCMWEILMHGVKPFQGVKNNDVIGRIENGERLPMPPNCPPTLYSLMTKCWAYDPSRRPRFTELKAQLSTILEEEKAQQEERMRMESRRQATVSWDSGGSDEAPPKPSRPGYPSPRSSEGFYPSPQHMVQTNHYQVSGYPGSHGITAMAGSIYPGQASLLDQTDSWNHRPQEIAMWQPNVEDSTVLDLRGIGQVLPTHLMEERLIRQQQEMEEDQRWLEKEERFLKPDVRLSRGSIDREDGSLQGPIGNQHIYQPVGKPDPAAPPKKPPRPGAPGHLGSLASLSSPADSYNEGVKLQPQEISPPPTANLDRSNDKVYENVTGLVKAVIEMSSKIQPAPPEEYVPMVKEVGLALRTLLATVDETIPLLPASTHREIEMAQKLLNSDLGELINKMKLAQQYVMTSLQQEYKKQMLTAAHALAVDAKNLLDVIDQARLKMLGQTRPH

Molecular target: Focal adhesion kinase 1 (Homo sapiens, UniProt Q05397)
Assay: Inhibition of pre-activated recombinant full length FAK (unknown origin) using ULight labeled poly(Glu/Tyr) as substrate after 1.6 hrs by TR-FRET assay

With CNC(=O)c1ccccc1Nc1ncnc(Nc2ccc(N3CCOCC3)cc2OC)n1 the pIC50 was 6.49.
